Apparent affinities of Ab-14 variants for a coronavirus HR2 peptide

Values reported by Engelhart et al. 2022, doi:10.1038/s41597-022-01779-4 (FLAb copy).

Antigen: PDVDLGDISGINAS, a 14-residue peptide of the SARS-CoV-2 spike HR2 region.

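Phage display of a naive human antibody library on the peptide gave the parent. The library (AAYL50) carries one to three amino acid substitutions per variant, with no insertions or deletions. AlphaSeq pools MATa yeast showing the antibodies with MATalpha yeast showing the peptide. After mating in shaken culture at 30 °C for 16 h, diploids were selected and their barcode pairs sequenced. A regression on co-assayed BCL2-family reference pairs converts the normalised counts of each replicate to an apparent Kd. Each pool was mated in three replicate cultures.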

Ab-14 is the parent antibody, in scFv form: VH, then three GGGGS repeats, then VL. The heavy chain is unchanged in all variants.
VH: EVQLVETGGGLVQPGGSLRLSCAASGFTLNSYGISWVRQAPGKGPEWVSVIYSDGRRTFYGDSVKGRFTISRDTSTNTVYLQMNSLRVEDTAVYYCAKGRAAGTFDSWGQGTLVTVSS
VL: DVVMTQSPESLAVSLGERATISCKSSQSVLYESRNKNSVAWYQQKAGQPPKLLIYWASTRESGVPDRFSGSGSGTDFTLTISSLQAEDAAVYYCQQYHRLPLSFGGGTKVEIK

Changes read parent residue, position, new residue, counted from the first residue of the VL shown.
Affinities are written as log10 Kd with Kd in nM; a lower number is a better binder.
An entry "nd" has no value in the source: the pair was not observed among the diploids in that replicate. This suggests poor binding but is not conclusive.
Nonspecific signal, from three strains lacking the peptide, appeared in 18% of pairings of library AAYL50, centred on 4.19 (5% of these signals below 2.99); values are not corrected for it. For each scFv, signals with the empty controls are counted beside the result, with their mean in brackets.

changes,log10 Kd (nM) by replicate,empty controls
E61C S62K,0.98 1.05 1.06,2/9 (5.64)
V29M A40Q H98C,nd 3.73 nd,2/9 (4.34)
N35L,1.03 1.02 0.97,0/9
H98G L102T S103N,nd nd nd,1/9 (3.63)
Y31H S38Y L100S,4.89 4.14 5.48,1/9 (3.40)
S28D W56Y R99K,nd nd nd,1/9 (3.87)
N37T S58P Q95M,4.63 nd 4.45,3/9 (4.35)
N35L W56Q L100K,nd nd 4.05,5/9 (4.45)
V29W S33Y H98R,4.46 nd 4.13,5/9 (4.38)
Q27H R34Y Q96R,nd nd nd,0/9
L30E E61H P101R,4.72 nd nd,0/9
K36N V39K E61P,nd nd nd,0/9
E32R Y97W H98L,2.04 2.06 2.40,0/9
S28R V39N S58R,nd nd nd,0/9
L30E V39N R60G,nd nd nd,0/9
S26Q S58Y Q95C,3.01 2.36 2.66,1/9 (4.07)
Q27T V39Y S62D,nd 2.41 nd,1/9 (3.48)
Q27Y E32S S33R,3.40 2.72 4.61,4/9 (4.73)
N35S Q95H Q96G,nd nd 3.43,1/9 (3.93)
V29C E32K N37C,nd nd nd,0/9
S28G E61W P101F,2.54 1.80 2.11,1/9 (3.99)
V29P N35F A40V,nd nd 3.63,1/9 (4.49)
Q27G S28N E32L,1.32 1.36 1.51,2/9 (4.48)
K24S E32T S33G,0.96 1.40 1.24,4/9 (3.55)
S25Q S33Y R34E,0.50 0.66 0.67,7/9 (5.61)
K24N A57K L102P,nd 3.33 nd,2/9 (5.03)
N35Y K36W A57E,2.83 nd nd,2/9 (3.18)
K24F S38Y T59W,nd 3.30 nd,2/9 (4.72)
S28H L30N E32R,nd nd nd,0/9
R34H S38Q,1.38 1.36 1.39,1/9 (4.15)
Q27T L100A,4.33 nd nd,1/9 (2.54)
L30C S58C S103N,5.67 nd nd,0/9
E32S Y97K L100N,nd nd nd,0/9
S26M E61Y S62Q,0.65 1.06 1.10,2/9 (3.91)
L30S N35K W56A,0.40 0.26 0.20,0/9
K36A S58K R60L,1.26 1.69 2.26,2/9 (3.91)
E61I Q96S P101R,1.14 1.16 1.18,0/9
K36G S58Q H98A,0.92 0.97 1.01,1/9 (3.09)
K36F S38H A57L,4.58 nd nd,1/9 (4.35)
S26H L30K H98E,nd 4.67 4.57,3/9 (4.07)
Q27T E32W T59I,0.84 1.02 1.30,1/9 (3.95)
S25H Y31K S33I,2.06 1.64 2.18,0/9
K24M T59H L100R,4.18 nd nd,0/9
S33M A40N L100C,nd nd nd,1/9 (3.88)
S28Q E61H R99L,1.84 1.69 1.94,2/9 (3.86)
Y31M N35F K36G,0.58 0.86 0.69,4/9 (4.86)
N35A W56N R99Y,0.84 0.88 0.94,1/9 (4.17)
S26I Y31T S58L,nd nd 5.15,1/9 (2.87)
S28D A57D,1.33 1.39 1.40,0/9
Y97K H98F P101F,0.58 1.14 0.67,4/9 (4.04)

A selection of 5 entries from above:

changes,log10 Kd (nM) by replicate,empty controls
K36N V39K E61P,nd nd nd,0/9
E61C S62K,0.98 1.05 1.06,2/9 (5.64)
K24S E32T S33G,0.96 1.40 1.24,4/9 (3.55)
R34H S38Q,1.38 1.36 1.39,1/9 (4.15)
S26Q S58Y Q95C,3.01 2.36 2.66,1/9 (4.07)